Where a chain is given by its changes, count along the chain named.
T1: human IL-4RA-hFc (human, UniProt P24394 26-232)
T1 construct: mature; no linker is stated
T1 sequence (looked up): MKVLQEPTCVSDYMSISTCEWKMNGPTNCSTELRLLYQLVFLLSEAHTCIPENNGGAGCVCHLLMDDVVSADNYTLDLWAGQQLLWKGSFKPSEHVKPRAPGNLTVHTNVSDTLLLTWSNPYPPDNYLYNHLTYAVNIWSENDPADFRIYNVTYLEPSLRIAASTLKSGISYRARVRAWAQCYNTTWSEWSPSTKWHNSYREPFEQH

B1: humanized anti-human IL-4RA antibody 13E5H4L2 (antibody, V domains shown)
VH: QVQLVQSGAEVVKPGASVKVSCKTSGYTFTEYTIHWVRQAPGQSLEWIGGINPNNGGTVYNQKFQGKVTLTVDKSTSTAYMELSSLRSEDTAVYYCARVRRGMDYWGQGTSVTVSS
VL: DIQMTQSPSSLSASVGDRVTITCRASQDVTTAVAWYQQKPGKAPKLLIYSASSRYTGVPSRFSGSGSGTDFTLTISSVQPEDLATYYCQQHYSAPWTFGGGTNLEIKR
B2: humanized anti-human IL-4RA antibody 13E5H3L3 (antibody, V domains shown)
VH: B1 VH with T24A, S44G, V59N, N61A, K67R, L70I
VL: B1 VL with V33L, R54L, V78L, L83F
B3: positive control antibody dupilumab VAB 16F3-1 (antibody, V domains shown)
VH: EVQLVESGGGLVQPGRSLRLSCEASGFTFDDYAMHWVRQAPGKGLEWVSGLSRTSVSIGYADSVKGRFTISRDNAKNSLYLEMNSLRPEDTALYYCAKWGTRGYFDYWGQGTLVTVSS
VL: DIQMTQSPSSVSASVGDRVTITCRASQDISIWLAWYQQSPGKAPKLLINVASRLQSGVPSRFSGSGSGTDFTLTINSLQPEDFVTYYCQQANSFPITFGQGTRLATKR

What was measured:
human IL-4RA-mFc [1] = target: T2, human IL-4RA-mFc (human, UniProt P24394 26-232); assay: indirect ELISA; antibody 0 (no-antibody blank)
T2 construct: mature; no linker is stated; Made by Akeso Biopharma; also used as the immunogen
Procedure: (§1) Procedures: The Elisa plates were coated with human IL-4RA-hFc or human IL-4RA-mFc and were incubated, and the target antibodies were added after blocking. […] The plates were incubated and washed before TMB (Neogen, 308177) was added for chromogenic reaction. At the end of the reaction, the absorbance at 450 nm was measured by a microplate reader. The data were analyzed and processed by SoftMax Pro 6.2.1.

human IL-4RA-mFc [2] = target: T2, human IL-4RA-mFc; assay: indirect ELISA; antibody 0.333 ug/mL diluted 1:729
Procedure: as §1

human IL-4RA-hFc = target: T1, human IL-4RA-hFc; assay: competitive ELISA, coat 2 ug/mL, competitor IL4-N-his 0.15 ug/mL (anti-His signal); antibody 3 ug/mL
Procedure: The Elisa plates were coated with human IL-4RA-hFc and blocked before the target antibodies were added. […] After the plates were washed, mouse anti-His, HRP (purchased from CoWin Biosciences, Cat No. CW0285A) was added for incubation. The plates were subjected to another wash. A chromogenic reaction was performed by adding TMB (Neogen, 308177) and was then terminated. The Elisa plates were put into a microplate reader immediately, and the OD value of each well in the Elisa plates was read at 450 nm. The data were analyzed and processed by SoftMax Pro 6.2.1.

Binder	OD 450 nm (human IL-4RA-mFc [1]) [OD]	OD 450 nm (human IL-4RA-mFc [2]) [OD]	OD 450 nm (human IL-4RA-hFc) [OD]
B1	0.063	–	–
B2	0.056	–	–
B3	–	0.147	0.059

Source: patent US20250304703A1 (AKESO BIOPHARMA, published 2025)
